Source: patent US10695436B2, “Non-cleavable polymer conjugated with alpha V beta 3 integrin thyroid antagonists” (NANOPHARMACEUTICALS, LLC, priority 2016, dated 2020)

Experiment: Solubility of P-bi-TAT
Format: physicochemical
Experimental: Chemical Name: O,O′-Bis({4-[3,5-diiodo-4-(1-methylen-1,2,3-triazol-4-ylmethoxy)phenoxy]-3,5-diiodophenyl}acetic acid) polyethylene glycol. Physical Appearance: Yellowish brown powder Solubility: Soluble in water at 50 mg/ml; in Phosphate buffer, pH 8.0 at 100 mg/ml; in 10% Ethanol at 150 mg/ml, and in 50% propylene glycol at 200-300 mg/ml.

In the case of “O,O′-Bis({4-[3,5-diiodo-4-(1-methylen-1,2,3-triazol-4-ylmethoxy)phenoxy]-3,5-diiodophenyl}acetic acid) polyethylene glycol [P-bi-TAT]”, the “Solubility in 10% Ethanol” value (10% Ethanol) is reported as 150 mg/mL, the “Solubility in 50% propylene glycol” value (50% propylene glycol) is reported as 200 to 300 mg/mL and the “Solubility in Phosphate buffer, pH 8.0” value (Phosphate buffer, pH 8.0) is reported as 100 mg/ml. It also gave a Solubility in water (water) of 50 mg/mL.
